Measurements: patent US9346820B2, “HIV-1 protease inhibitors having gem-di-fluoro bicyclic P2-ligands” (priority 2013, dated 2016)

Tested on: HIV-1LAI
Experiment: Drug susceptibility MTT assay, MT-2 cells exposed to HIV-1LAI
Conditions: ratio of CC50 to EC50 against HIV-1LAI

`CC(C)CN(C[C@@H](O)[C@H](Cc1ccccc1)NC(=O)O[C@H]1CCOC1)S(=O)(=O)c1ccc(N)cc1` [APV, Amprenavir] was tested, and the “Selectivity Index” value was >3,333.
